How the values were obtained:
Type in all cases: ADME, organism-based
Conditions in all cases: in vivo
[1] = test system: Homo sapiens; test: Intercompartment clearance in Papua new Guinean women in second or third trimester of pregnancy using pharmacokinetic base model assessed as monodesethychloroquine at 450 mg/day, po administered as three divided doses in presence of sulfadoxine-pyrimethamine by HPLC method
[2] = test system: Homo sapiens; test: Clearance in Papua new Guinean women in second or third trimester of pregnancy using pharmacokinetic final covariate model assessed as monodesethychloroquine at 450 mg/day, po administered as three divided doses in presence of sulfadoxine-pyrimethamine by HPLC method
[3] = test system: Homo sapiens; test: Intercompartment clearance in Papua new Guinean women in second or third trimester of pregnancy using pharmacokinetic base model at 450 mg/day, po administered as three divided doses in presence of sulfadoxine-pyrimethamine by HPLC method
[4] = test system: Homo sapiens; test: Intercompartment clearance in Papua new Guinean women in second or third trimester of pregnancy using pharmacokinetic final covariate model assessed as monodesethychloroquine at 450 mg/day, po administered as three divided doses in presence of sulfadoxine-pyrimethamine by HPLC method
[5] = test system: Homo sapiens; test: Intercompartment clearance in Papua new Guinean women in second or third trimester of pregnancy using pharmacokinetic final covariate model at 450 mg/day, po administered as three divided doses in presence of sulfadoxine-pyrimethamine by HPLC method
[6] = test system: Homo sapiens; test: Clearance in Papua new Guinean women in second or third trimester of pregnancy using pharmacokinetic base model assessed as monodesethychloroquine at 450 mg/day, po administered as three divided doses in presence of sulfadoxine-pyrimethamine by HPLC method

## CCN(CC)CCCC(C)Nc1ccnc2cc(Cl)ccc12 (stereo unspecified) [CHLOROQUINE]
[1]
  CL/F: 3.6 L/h
[2]
  CL/F: 7 L/h
[3]
  CL/F: 20 L/h
[4]
  CL/F: 3.6 L/h
[5]
  CL/F: 20 L/h
[6]
  CL/F: 9.2 L/h
